In US20240139185A1, “COMPOUNDS THAT PARTICIPATE IN COOPERATIVE BINDING AND USES THEREOF” (Revolution Medicines, Inc., priority 2018, published 2024):

Tests used:
[1] = target: cyclophilin A (CYPA) (Homo sapiens, UniProt P62937); test: CYPA-compound binary complex formation by SPR; details: read-out: CYPA Binding Affinity
Experimental: In order to determine the affinity of compounds of the invention for cyclophilin A (CYPA), we employed surface plasmon resonance binding analysis using the following reagents, instruments and protocol as supplied by the instrument manufacturer.
Reagents and Instrument • 1. Instrument: Biacore S200 (GE Healthcare Life Sciences) • 2. Running buffer: 1×HBS-P+ (1×HBS supplemented with 0.05% Tween20), pH7.4, and 2% DMSO. • 3. Ligand: CypA-Avi • 4. Analyte: Serial dilution of WDB compounds from 50 μM to 0 μM, 2-fold dilution, 10 points (10 mM stock concentration). • 5. Sensor kit: Biotin CAPture Kit (BR28-9202-34, GE Healthcare Life Sciences) • 6. Regeneration buffer: 1 volume of 1 M NaOH and 3 volumes of 8 M guanidine hydrochloride (supplied with CAPture Kit, BR28-9202-34, GE Healthcare Life Sciences)
Experimental Procedure • 1. Capture of CAPreagent: 2 μl/min for 60 seconds. • 2. Immobilization of ligand CypA: Use Fc1 as the reference cell; immobilize CypA at 4 μg/ml using 5 μl/min flowrate on Fc2 (60s), Fc3 (80s) and Fc4 (80s), respectively. • 3. Binding of analytes: Inject WDB compound dilutions sequentially at 50 μl/min for association of 60 seconds. And then let it dissociates in buffer at 50 μl/min for 60 seconds. • 4. Regeneration: 2 injections of regeneration buffer at 30 μl/min for 60 seconds to regenerate the chip surface. • 5. Solvent correction: Run solvent correction at beginning and the end of the run. If run more than 6 compounds, add additional solvent correction every 6 compounds. • 6. Data fitting with built-in Biacore Evaluation Software: Steady-state fitting.

[2] = target: BRAF-GTP-KRAS-G12C complex (Homo sapiens, UniProt P01116+P62937, G12C); test: KRAS-BRAF complex disruption through competition with CYPA-compound by TR-FRET; details: read-out: BRAF-GTP-KRAS-G12C Disruption; biochemical BRAF-KRAS G12C-GTP disruption assay EC50, with CYPA
Experimental: In this example, TR-FRET was used to measure the compound-facilitated disruption of a KRAS-BRAF complex. A mixture of tagless Cyclophilin A, His6-KRAS G12C-GMP-PNP, and GST-BRAF RAS binding domain was added to a 384-well assay plate containing compounds of the invention and incubated for 3 hours. A mixture of Anti-His Eu-W1024 and anti-GST allophycocyanin was then added and the reaction was incubated for an additional 1.5 hours. TR-FRET signal was read on an EnVision microplate reader (Perkin Elmer, Ex 320 nm, Em 665/615 nm). Compounds that facilitate disruption of a KRAS_BRAF complex were identified as those eliciting a decrease in the TR-FRET ratio relative to DMSO control wells. To determine the presenter-dependence of the compound-mediated KRAS-BRAF complex disruption, Cyclophilin A was left out of the initial incubation (see Table 5). To determine G12C specificity of the compound-mediated KRAS-BRAF complex disruption, wild-type KRAS was used instead of G12C KRAS (see Table 5).
Reagents and Instrument • Tagless CYPA; 519 μM in PBS buffer, pH 7.4 • GST BRAF; 110 μM in PBS buffer, pH 7.4 • His6-KRASG12C-GMP-PNP; 50 μM in PBS buffer, pH 7.4 • His6-KRASWT-GMP-PNP; 40 μM in PBS buffer, pH 7.4 • Anti-His Eu-W1024 (LANCE® Eu-W1024; Perkin Elmer) • Anti-GST allophycocyanin (Anti-GST IgG conjugated to SureLight®-Allophycocyanin; Perkin Elmer; Product Number AD0059G) • Test compounds, 10 mM in 100% DMSO • EnVision (Perkin Elmer) • Combi MultiDrop liquid dispenser with 8-channel small volume cassette • 384-well ProxiPlate (black)
Experimental Protocol • 1. Use Mosquito to dispense 100 nL/well of compounds (varying concentration in […]) into 384-well black ProxiPlate to make assay-ready-plate (ARP). • 2. Make assay buffer containing 25 mM Hepes pH 7.3, 100 mM NaCl, 5 mM MgCl2, 0.05% BSA, and 0.002% Tween-20. • 3. Make PRE-MIX A: delivers final concentrations of 50 nM of His6-KRas G12C-GTP (1-169) and 500 nM of tagless CypA (1-165) in assay buffer. • a. For presenter dependence experiments, omit addition of tagless CypA • b. For G12C/wt specificity experiments, substitute His6-KRas WT-GTP (1-169) for His6-KRas G12C-GTP (1-169) • 4. Use MultiDrop Combi to dispense PRE-MIX A into ARP, 7 μl/well. Incubate 3 hr at room temperature. • 5. Make PRE-MIX B: delivers final concentrations of 10 nM of anti-His Eu-W1024 and 50 nM of anti-GST APC. • 6. Use MultiDrop Combi to dispense PRE-MIX B into ARP, 3 μl/well. Shake briefly on Combi and incubate 1.5 hr at room temperature. • 7. Read on EnVision (Ex: 320 nm; Em1: 615 nm; Em2: 665 nm). • 8. Data is processed using Dotmatics. Curves are fit using a 4-parameter non-linear fit to determine the EC50 value for formation of the ternary complex.

[3] = system: pERK in H358 cells; test: pERK inhibition in H358 cells; details: read-out: Cellular pERK inhibition, 4 hours treatment
Experimental: H358 cells (5500 cells) derived from a human lung cancer were plated in a 96 well plate in media (100 uL, RPMI with 10% FBS). After 24 hours, cells were treated for 4 hours with compound or DMSO. Cells were washed twice with room temperature TBS (200 uL) and fixed for 20 minutes with 4% paraformaldehyde diluted with TBS (150 uL). Cells were washed four times for five minutes with 0.1% TritonX/TBS (150 uL) to permeabilize the membrane. Cells were incubated with TBS blocking buffer (100 uL) at room temperature for 60 minutes. Primary antibody (Phospho-p44/42 MAPK (Erk1/2) (Thr202/Tyr204) (D13.14.4E) XP® Rabbit mAb #4370, Cell Signaling Technology; 1:200) was added, and the cells were incubated overnight at 4 C. The cells were washed four times for five minutes with 0.1% Tween 20/TBS (150 uL). Secondary antibody (IRDye® 800CW Goat-Anti-Rabbit IgG, Li-Cor Biosciences; 1:1000) and DRAQ5™ (Invitrogen; 1:2000) was added, and the cells were incubated for 1 hour at room temperature. The cells were washed four times for five minutes with 0.1% Tween 20/TBS (150 uL) and scanned using the LICOR (700 and 800 nm).

Row | Structure (SMILES) | Kd [1] | EC50 [2] | IC50 [3]
1 | CC#CC(=O)N1CC[C@@H](C(=O)N(C)[C@H](C(=O)N[C@H]2Cc3cc(O)cc(c3)-c3ccc4c(C(C)(C)C#N)cn(c4c3)CC(C)(C)COC(=O)[C@@H]3CCCN(N3)C2=O)C(C)C)C1 | 5 to 15 µM | 0.5 to 5 µM | > 10 µM
2 | C=CC(=O)N1CCCC2(CCN([C@H](C(=O)N[C@H]3Cc4cc(O)cc(c4)-c4ccc5c(C(C)(C)C#N)cn(c5c4)CC(C)(C)COC(=O)[C@@H]4CCCN(N4)C3=O)C(C)C)C2=O)C1 (single isomer, unassigned) [332] | 5 to 15 µM | > 5 µM | > 10 µM
3 | CC(C)[C@@H](C(=O)N[C@H]1Cc2cc(O)cc(c2)-c2ccc3c(C(C)(C)C#N)cn(c3c2)CC(C)(C)COC(=O)[C@@H]2CCCN(N2)C1=O)N1CCC2(CN(C(=O)[C@H](C)Cl)C2)C1=O | < 5 µM | > 5 µM | > 10 µM
4 | CC(C)[C@@H](C(=O)N[C@H]1Cc2cc(O)cc(c2)-c2ccc3c(C(C)(C)C#N)cn(c3c2)CC(C)(C)COC(=O)[C@@H]2CCCN(N2)C1=O)N(C)C(=O)C1CCN(C(=O)CCl)CC1 | 5 to 15 µM | < 0.5 µM | < 1 µM
5 | CC(C)[C@@H](C(=O)N[C@H]1Cc2cc(O)cc(c2)-c2ccc3c(C4(C#N)CCOCC4)cn(c3c2)C[C@H](C)COC(=O)[C@@H]2CCCN(N2)C1=O)N(C)C(=O)C1CN(C(=O)CCl)C1 | 5 to 15 µM | < 0.5 µM | 1 to 10 µM
6 | CC(C)[C@@H](C(=O)N[C@H]1Cc2cc(O)cc(c2F)-c2ccc3c(C(C)(C)C#N)cn(c3c2)CC(C)(C)COC(=O)[C@@H]2CCCN(N2)C1=O)N(C)C(=O)C1CN(C(=O)CCl)C1 | > 15 µM | < 0.5 µM | > 10 µM
7 | C[C@@H](Cl)C(=O)N1CC(C(=O)N(C)[C@H](C(=O)N[C@H]2Cc3cc(O)cc(c3)-c3ccc4c(C(C)(C)C#N)cn(c4c3)CC(C)(C)COC(=O)[C@@H]3CCCN(N3)C2=O)c2ccccc2)C1 | > 15 µM | > 5 µM | > 10 µM
8 | CC(C)[C@@H](C(=O)N[C@H]1Cc2cc(O)cc(c2)-c2ccc3c4c(n(c3c2)C[C@H](C)COC(=O)[C@@H]2CCCN(N2)C1=O)COCC4(C)C#N)N(C)C(=O)C1CN(C(=O)CCl)C1 (single isomer, unassigned) [63] | 5 to 15 µM | < 0.5 µM | < 1 µM
9 | CC(C)[C@@H](C(=O)N[C@H]1Cc2cc(O)cc(c2)-c2ccc3c(-c4ccccc4C#N)c(C#N)n(c3c2)CC(C)(C)COC(=O)[C@@H]2CCCN(N2)C1=O)N(C)C(=O)C1CN(C(=O)[C@@H](C)Cl)C1 | < 5 µM | < 0.5 µM | 1 to 10 µM
10 | COC1COC(=O)[C@@H]2CCCN(N2)C(=O)[C@@H](NC(=O)[C@H](C(C)C)N(C)C(=O)C2CN(C(=O)CCl)C2)Cc2cc(O)cc(c2)-c2ccc3nc(C)n(c3c2)C1 (stereo partly shown) | < 5 µM | 0.5 to 5 µM | > 10 µM
11 | COc1ccccc1-c1cc2ccc3cc2n1C[C@H](C)COC(=O)[C@@H]1CCCN(N1)C(=O)[C@@H](NC(=O)[C@H](C(C)C)N(C)C(=O)C1CN(C(=O)[C@@H](C)Cl)C1)Cc1cc(O)cc-3c1 | > 15 µM | 0.5 to 5 µM | > 10 µM
12 | COc1ccc(C[C@H](NC(=O)C2CN(C(=O)CCl)C2)C(=O)N[C@H]2Cc3cc(O)cc(c3)-c3ccc4c(C#N)cn(c4c3)CC(C)(C)COC(=O)[C@@H]3CCCN(N3)C2=O)cc1 | > 15 µM | > 5 µM | > 10 µM
13 | C=CC(=O)N1CC[C@H](C(=O)N(C)[C@H](C(=O)N[C@H]2Cc3cc(O)cc(c3)-c3ccc4c(c3)c(cn4-c3c(Br)cccc3C#N)CC(C)COC(=O)[C@@H]3CCCN(N3)C2=O)C(C)C)C1 (single isomer, unassigned) [382] | 5 to 15 µM | 0.5 to 5 µM | < 1 µM
14 | CC(C)[C@@H](C(=O)N[C@H]1Cc2cc(O)cc(c2)-c2ccc3c(c2)N(C[C@H](C)COC(=O)[C@@H]2CCCN(N2)C1=O)CC3(C)Cn1cccn1)N(C)C(=O)C1CN(C(=O)[C@@H](C)Cl)C1 (single isomer, unassigned) | < 5 µM |  | > 10 µM
15 | C[C@@H](Cl)C(=O)N1CC(C(=O)N(C)[C@H](C(=O)N[C@H]2Cc3cc(O)cc(c3)-c3ccc4c(C(C)(C)C#N)cn(c4c3)CC(C)(C)COC(=O)[C@@H]3CCCN(N3)C2=O)C2CC2)C1 | 5 to 15 µM |  | > 10 µM
16 | CC(C)[C@@H](C(=O)N[C@H]1Cc2cc(O)cc(c2)-c2ccc3c(-c4cccc5c4CNC5=O)cn(c3c2)CC(C)(C)COC(=O)[C@@H]2CCCN(N2)C1=O)N(C)C(=O)C1CN(C(=O)[C@@H](C)Cl)C1 | < 5 µM |  | > 10 µM
17 | C=CC(=O)N1CCC(C(=O)N(C)[C@H](C(=O)N[C@H]2Cc3cc(O)cc(c3)-c3ccc4c(C(C)(C#N)C5CCOCC5)cn(c4c3)CC(C)(C)COC(=O)[C@@H]3CCCN(N3)C2=O)C(C)C)C1 (stereo partly shown) | 5 to 15 µM |  | > 10 µM
18 | CC(C)[C@@H](C(=O)N[C@H]1Cc2cc(O)cc(c2)-c2ccc3c(-c4ccc5c(c4)C(=O)NC5)cn(c3c2)CC(C)(C)COC(=O)[C@@H]2CCCN(N2)C1=O)N(C)C(=O)C1CN(C(=O)[C@@H](C)Cl)C1 | < 5 µM |  | > 10 µM
